Assay [1] has as its target T1, human CB1 receptor (Homo sapiens, UniProt P21554). Description: Human CB1 receptor binding, [3H] CP-55,940 displacement on HEK cell membranes. Particulars: read-out: CB1 Ki, [3H] CP-55,940 500 pM. Here is the method:
The Human CB1 receptor binding affinity and other biological activities of the compounds of this invention are determined by the following procedures.
Membrane preparation: Human Embryonic Kidney (HEK) Cells expressing the human CB1 receptor under transcriptional regulation of a tetracycline inducible promoter were grown in Dulbecco's Modified Essential Medium with sodium pyruvate (Invitrogen, Carlsbad, Calif.) containing 10% tetracycline free fetal bovine serum (Clonetech, Mountain View, Calif.) 100 μg/ml hygromycin (Calbiochem, San Diego, Calif.), 5 μg/ml blasticidin (Invitrogen). CB1 receptor expression was induced by addition of 1 μg/ml doxycycline (Calbiochem) and incubation for an additional 24 hours. Cells were released from flasks using Cell Dissociation Buffer (Invitrogen). Cells were pelleted by centrifugation at 500×G for 5 minutes. […] Protein concentration was determined using the Micro-BCA Protein Assay Kit (Pierce, Rockford, Ill.) using BSA as a standard. […] Nonspecific binding was determined by incubation with 50 μM WIN-55,212-2 (Tocris, Ellisville, Mo.). […] 40 μl of Microscint-20 (Perkin Elmer) was added per well, and plates were counted using a Top-Count Microplate Scintillation Counter (Perkin Elmer). Binding data were analyzed and EC50 and Ki values calculated using Graph Pad Prism 4.0 Software.

Sequences of proteins named here, by UniProt entry; tags and fusion partners are left off.
UniProt P21554, whole entry: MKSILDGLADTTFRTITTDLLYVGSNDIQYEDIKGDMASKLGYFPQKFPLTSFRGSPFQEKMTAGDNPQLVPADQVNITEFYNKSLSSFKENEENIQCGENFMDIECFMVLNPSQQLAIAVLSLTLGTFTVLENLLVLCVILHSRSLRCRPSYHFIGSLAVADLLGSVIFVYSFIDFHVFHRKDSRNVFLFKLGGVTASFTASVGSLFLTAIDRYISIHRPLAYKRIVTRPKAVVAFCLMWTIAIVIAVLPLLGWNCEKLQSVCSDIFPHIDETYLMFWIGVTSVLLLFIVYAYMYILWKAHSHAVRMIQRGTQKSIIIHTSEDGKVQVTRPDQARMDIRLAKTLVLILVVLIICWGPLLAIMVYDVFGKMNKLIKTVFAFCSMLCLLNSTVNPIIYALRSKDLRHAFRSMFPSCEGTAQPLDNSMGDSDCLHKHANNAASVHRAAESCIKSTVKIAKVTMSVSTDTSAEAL

Assay [2] addresses T1, human CB1 receptor. Briefly: GTPγS binding on membranes of CHO cells expressing the human CB1 receptor. The conditions noted are these: read-out: GTPγS EC50, CHO cell membranes, [35S] GTPγS. On the procedure:
Membrane preparation: CHO cells expressing the human CB1 receptor were grown to 80% confluence in Ham's F-12 Nutrient Medium (Invitrogen) containing 10% fetal bovine serum (Invitrogen), 1% pen/strep (Invitrogen), 1% Nonessential amino acids (Invitrogen) and 500 μg/ml G418 (Invitrogen). Cells were released from flasks using Cell Dissociation Buffer (Invitrogen). Cells were pelleted by centrifugation at 500×G for 5 minutes. Membranes were prepared by resuspending cells in ice cold Assay Buffer (25 mM Tris pH 7.4, 5 mM EDTA, 5 mM EGTA, Complete Protease Inhibitor (Roche)). Cells were lysed with 12 strokes of a dounce homogenizer. Unlysed cells were pelleted by centrifugation at 500×G for 5 minutes. Membranes were pelleted by centrifugation at 25,000×G for 30 minutes. Membranes were resuspended in TEE, dounced 12 strokes, and pelleted a second time at 25,000×G for 30 minutes. Membrane pellet was resuspended in 50 mM Tris pH 7.4, 100 mM NaCl, 3 mM MgCl2, 0.2 mM EGTA, Complete Protease Inhibitor (Roche). Protein concentration was determined using the Micro-BCA Protein Assay Kit (Pierce) using BSA as a standard. […] 40 μl of Microscint-20 (Perkin Elmer) was added per well, and plates were counted using a Top-Count Microplate Scintillation Counter (Perkin Elmer). Binding data were analyzed and EC50 values were calculated using Graph Pad Prism 4.0 Software.
In general terms: GTPγS resists hydrolysis and so accumulates on activated G proteins.

As a reminder, the Ki is a measure of affinity in units of concentration, obtained from inhibition or displacement. Broadly, the EC50 is the concentration at which the effect is half-maximal.

As for `CC(C)(C)[C@H](NC(=O)n1c(=O)n(CCCC2CC2)c2ccccc21)C(N)=O`, in assay [1], the Ki worked out at 1.8 nM. Moreover, the EC50 in assay [2] amounted to 13.5 nM.

Turning to `Cc1ccc2c(c1)n(CC1CCCCC1)c(=O)n2C(=O)N[C@@H](CC(C)C)C(N)=O`, the Ki in assay [1] turned out to be 17.2 nM. Besides, the 50% effective concentration (EC50) in assay [2] was 399 nM.

The record behind these values is patent publication US20090298811A1, “BENZIMIDAZOLONE DERIVATIVES” (Pfizer Inc, priority 2006, published 2009).
